Assays:
Homo sapiens [1] = species: Homo sapiens; experiment: Selectivity ratio of IC50 for VEGFR2 (unknown origin) to IC50 for c-Met (unknown origin)
Homo sapiens [2] = species: Homo sapiens; experiment: Selectivity ratio of IC50 for EGFR (unknown origin) to IC50 for c-Met (unknown origin)
Homo sapiens [3] = species: Homo sapiens; experiment: Selectivity ratio of IC50 for FLT3 (unknown origin) to IC50 for c-Met (unknown origin)
Homo sapiens [4] = species: Homo sapiens; experiment: Selectivity ratio of IC50 for c-Kit (unknown origin) to IC50 for c-Met (unknown origin)

Ratio IC50 (Homo sapiens [1]): 23.7 | Ratio IC50 (Homo sapiens [2]): 431 | Ratio IC50 (Homo sapiens [3]): 59.4 | Ratio IC50 (Homo sapiens [4]): 195
SMILES: Cc1cc(=O)n(-c2ccc(F)cc2)nc1C(=O)Nc1ccc(Oc2ncnc3ccsc23)c(F)c1
